From US20070270392A1, “Use of a Cyclopentenone Prostaglandin for Delaying the Onset and/or Preventing the Continuation of Labour” (Imperial College Innovations Limited, priority 2003, published 2007)

By UniProt entry, the sequences of proteins in these tests, tags left out.
UniProt P37231, whole entry, species assumed: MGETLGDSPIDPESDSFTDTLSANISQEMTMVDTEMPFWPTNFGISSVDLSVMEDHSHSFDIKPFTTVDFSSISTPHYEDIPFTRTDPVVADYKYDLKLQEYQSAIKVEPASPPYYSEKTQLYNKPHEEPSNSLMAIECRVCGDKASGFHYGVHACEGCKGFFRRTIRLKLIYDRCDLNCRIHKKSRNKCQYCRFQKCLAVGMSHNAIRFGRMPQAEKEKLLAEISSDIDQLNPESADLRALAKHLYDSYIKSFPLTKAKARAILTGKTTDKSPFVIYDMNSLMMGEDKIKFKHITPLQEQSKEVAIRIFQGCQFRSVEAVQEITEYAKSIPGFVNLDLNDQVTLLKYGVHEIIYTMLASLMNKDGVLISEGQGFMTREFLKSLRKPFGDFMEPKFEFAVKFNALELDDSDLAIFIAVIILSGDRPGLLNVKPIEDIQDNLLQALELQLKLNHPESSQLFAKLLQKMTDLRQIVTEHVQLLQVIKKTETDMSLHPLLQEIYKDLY

Target: PPAR-γ (Homo sapiens, UniProt P37231)
Assay: PPAR-γ-dependent PPRE reporter (3-PPRE-TK.pGL3) with PPAR-γ expression construct
Details: both cell types (myometrial, amnion), PPAR-γ overexpressed, 10 mM or 20 mM, 24 h

## CN(CCOc1ccc(C[C@H](Nc2ccccc2C(=O)c2ccccc2)C(=O)O)cc1)c1ccccn1 [GW1929]
  PPAR-γ-mediated transcription of a PPRE-dependent reporter: potentiating
